## Measured affinities in a library of Ab-14 light chain variants

Reference: Engelhart et al. 2022, doi:10.1038/s41597-022-01779-4. File: FLAb, binding data.

Antigen: PDVDLGDISGINAS, a 14-residue peptide of the SARS-CoV-2 spike HR2 region.

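The parent was found by panning a naive human phage display library on the peptide. Variants in AAYL50 differ from the parent at up to three CDR positions; double and triple changes were sampled at random. Affinity was read by AlphaSeq, a pooled yeast mating assay with surface-displayed partners. After mating in shaken culture at 30 °C for 16 h, diploids were selected and their barcode pairs sequenced. A regression on co-assayed BCL2-family reference pairs converts the normalised counts of each replicate to an apparent Kd. The assay was run in three technical replicates.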

Each scFv is VH, a (GGGGS)3 linker, VL, as in the parent Ab-14, and differs from it in the CDRs of the light chain only.
VH: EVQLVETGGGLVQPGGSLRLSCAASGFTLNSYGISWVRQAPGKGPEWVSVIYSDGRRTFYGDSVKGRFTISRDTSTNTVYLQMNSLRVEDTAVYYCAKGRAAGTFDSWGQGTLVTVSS
VL: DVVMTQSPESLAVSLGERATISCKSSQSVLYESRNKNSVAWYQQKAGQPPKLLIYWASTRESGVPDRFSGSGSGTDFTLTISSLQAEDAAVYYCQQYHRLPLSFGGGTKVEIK

Each variant is given by its three light chain CDRs, as the data file delimits them; those of the parent are KSSQSVLYESRNKNSVA, WASTRES, QQYHRLPLS. Scale: log10 of Kd in nM, estimated from mating counts; low values are strong binders. "n.d." means that the variant was in the library but no mating with the target was seen in that replicate; the authors take this as a sign of poor binding, and no number exists. In this assay the parent's reference entry averaged 0.65; its copy inside this library read 1.68.

CDR-L1	CDR-L2	CDR-L3	replicates, log10 nM	empty controls
KSSQSVNYELRDKNSVA	WASTRES	QQYHRLPLS	0.92 1.11 0.95	2/9 (4.21)
KSSQSVIYESRNKNSVA	WACTRES	QQYHRLPLS	n.d. n.d. n.d.	0/9
KSSQSVLYESRNKNSVA	WASTRNS	QQYHRLHIS	n.d. n.d. n.d.	1/9 (3.36)
KSSQAVLYESRNKNSVA	WASTRES	QQYHRLPLG	n.d. n.d. 3.76	0/9
KSSQSVLYHSRNKNSVA	QASTRPS	QQYHRLPLS	1.34 1.25 1.44	2/9 (4.28)
KSSQSVLWESRNKNSVA	WHSTRES	QQYHRLELS	n.d. 4.12 n.d.	0/9
KESQSVLYESRNKNSVA	WASTRES	QNNHRLPLS	3.17 2.89 4.13	4/9 (4.57)
KSSQSVLYETRNKNSVA	WKSWRES	QQYHRLPLS	2.26 1.43 2.67	1/9 (5.02)
KSSISVLYESRTKNSVV	WASTRES	QQYHRLPLS	n.d. n.d. n.d.	0/9
KSSQSVRYESRNKNSVA	WASTRES	QTYHRLPLW	3.71 2.33 2.88	2/9 (3.96)
KSSQSVLYESRFKNSVA	WASTRES	QQRPRLPLS	n.d. n.d. n.d.	0/9
KSSQSVLYESRNKNSSP	WASTRES	QQYHRLDLS	n.d. n.d. n.d.	0/9
KSSQSVLYESRNKNSVA	WASTRES	QQTHRLKLS	n.d. n.d. n.d.	1/9 (3.60)
KSSQSVLYESRNKNSFA	WASTRES	QQWHRLPLS	n.d. 3.99 n.d.	2/9 (4.07)
KSSQSCLYEMRNKNSVA	WASTRES	QQYHRLPLK	2.82 2.27 2.83	0/9
KSSQSVLRESRNKNSVA	WASTRES	QQYKRLPLQ	n.d. n.d. n.d.	2/9 (3.22)
KSSQRVLYESRNKNSVA	WASTRES	QQYHRLPLS	2.68 2.71 2.60	1/9 (4.02)
KSSQSNLYESRNKNSVA	WASTRYS	QQYHRLPLS	0.17 0.41 0.27	0/9
KSSYSVLYESRNKNSVA	WASTRES	QQYHRLPTS	n.d. n.d. 5.29	1/9 (4.37)
KSSQSVLYESRNKGSVA	WASTRES	QQYHRLPES	0.90 1.14 0.98	3/9 (4.39)
KSSYSVLLESRNKNSVA	WASTRGS	QQYHRLPLS	n.d. n.d. n.d.	0/9
KSSQSVLYESRNKDSVA	WASTRES	QQYHRLHLS	2.71 2.85 4.60	0/9
KSSQSVLYESRNKNSVS	WASHRES	QQYHRLILS	n.d. n.d. n.d.	2/9 (4.11)
KWSQSVLYESGNKNSVA	VASTRES	QQYHRLPLS	3.40 2.45 2.71	0/9
KSSQSVLYYSRNKNSVA	WASTRES	MQYHRLPQS	n.d. n.d. n.d.	0/9
RSSQSVLYESRNKNSVA	WASTRES	QQYHRWNLS	1.10 1.34 1.13	1/9 (2.86)
YSSNSVLYESRNSNSVA	WASTRES	QQYHRLPLS	n.d. n.d. n.d.	4/9 (4.53)
KSSQSVLYESRNKNEVA	WARTRES	QQLHRLPLS	n.d. 5.18 n.d.	6/9 (3.65)
KSSQSHLYESRNKNSVA	WASTRES	QQYHRLFLV	n.d. n.d. n.d.	2/9 (4.22)
KSSQSVLYESRNKNSVA	GASDEES	QQYHRLPLS	3.29 n.d. n.d.	0/9
KSSQSVLKESRNPNSVA	WASTRLS	QQYHRLPLS	0.81 0.99 0.86	5/9 (4.87)
KSSQSVLYESRNKNSVA	WAINRES	QQYHRLPLS	n.d. n.d. n.d.	2/9 (3.37)
KYSQSVLYESRNKNSNA	WASTRPS	QQYHRLPLS	n.d. n.d. n.d.	0/9
ASSQSVLYESRNKNSVA	WASTRLS	RQYHRLPLS	1.97 2.02 2.13	2/9 (4.20)
KSDQSVLYESRNKNSVA	WASTREF	QQYHRIPLS	2.11 2.33 2.21	1/9 (2.90)
KSSQSVLYESRNKWSVA	WASTPES	QQYHHLPLS	1.86 1.51 1.88	1/9 (4.38)
KSSQSVLVESRNKNSVA	WAMTRES	QQYHRLPLS	1.80 1.43 1.62	0/9
KSEQSVLYESRNKNSVA	WFSTRES	QQYHRDPLS	n.d. n.d. n.d.	0/9
KSSQSGLYESRNKNSVA	WASCRES	MQYHRLPLS	1.64 2.05 1.56	0/9
KSSQSVPYESRHKNSVA	WASTRES	QQYHRLKLS	2.05 2.11 1.58	1/9 (3.94)
KSSQSCLYESRNKNSVA	HGSTRES	QQYHRLPLS	1.03 1.10 1.27	2/9 (3.14)
KSSQSVLYESRNKNSVA	WAVTRES	QQKHRLPLS	3.17 n.d. n.d.	0/9
KSSQSVLYESRNKFSVA	WMSTRES	QQYHRQPLS	2.70 2.18 2.46	0/9
KSSWSVEYESRNKNHVA	WASTRES	QQYHRLPLS	0.53 0.70 0.70	3/9 (5.16)
WSSQSVLYENRNKNSVF	WASTRES	QQYHRLPLS	4.64 4.56 4.03	7/9 (4.24)
KSSQSVLTESRNKSSVA	WASTREA	QQYHRLPLS	0.74 1.11 1.26	0/9
KSSQSVLYESRNKNLVA	WWSTLES	QQYHRLPLS	n.d. n.d. n.d.	1/9 (3.31)
KSSQSVHYESRNKNSVA	WASTREY	QQYYRLPLS	1.10 1.02 1.52	0/9

For reference, 7 entries of the list once more:

CDR-L1	CDR-L2	CDR-L3	replicates, log10 nM	empty controls
KSSQSVNYELRDKNSVA	WASTRES	QQYHRLPLS	0.92 1.11 0.95	2/9 (4.21)
KSSQSVLKESRNPNSVA	WASTRLS	QQYHRLPLS	0.81 0.99 0.86	5/9 (4.87)
KSSQSVLYESRNKNSFA	WASTRES	QQWHRLPLS	n.d. 3.99 n.d.	2/9 (4.07)
ASSQSVLYESRNKNSVA	WASTRLS	RQYHRLPLS	1.97 2.02 2.13	2/9 (4.20)
WSSQSVLYENRNKNSVF	WASTRES	QQYHRLPLS	4.64 4.56 4.03	7/9 (4.24)
KSSQSVLYESRNKNSVS	WASHRES	QQYHRLILS	n.d. n.d. n.d.	2/9 (4.11)
KSSQSVLYESRNKDSVA	WASTRES	QQYHRLHLS	2.71 2.85 4.60	0/9

Background: pairings of library AAYL50 with three empty control strains gave a value in 18% of cases (median 4.19, 5th percentile 2.99). Values in that range, when seen in few replicates, are hard to tell from nonspecific mating. The control count says in how many pairings with the empty strains this scFv gave a signal, with their mean in brackets.